High-throughput results deposited in PubChem by Broad Institute.
PGC1a acetyl inh = lowers PGC1a acetylation signal in U2OS cells; AlphaScreen anti-acetyl-lysine; with virally co-expressed GCN5 acetyltransferase; inhibition, % at 15.6 µM; 350,000 compounds, 0.17% hits; AID 651687;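 active = every replicate shows inhibition of at least 40%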;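 note: 0% = neutral control wells and 100% = positive control wells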
esBAF inh = blocks esBAF chromatin remodeling in mouse ES cells. Bmi1-luciferase knock-in reporter, 24 h; 100% = twice the neutral-well signal. reporter increase, % at 12.5 µM. 350,000 compounds, 2% hits; in the data active = activation above about 40%;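 note: 0% = median of the plate's neutral control wells and 100% = double that signal; a rise in the Bmi1 reporter signal indicates esBAF inhibition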
Yeast UUG start = modulators of yeast start codon fidelity, primary screen, whole organism, S. cerevisiae, single point, plate reader | S. cerevisiae UUG-firefly luciferase reporter, luminescence/redox ratio | activity score, % at 18.7 µM | hit rate 0.13% among 350,000;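 active = replicate mean at a twofold rise or more, about +100% in these data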;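 note: firefly luciferase made from a UUG start codon reports start codon fidelity; reporter light over untreated wells divided by growth signal over untreated wells; some hits fall short of that in this replicate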
PglD inh = inhibitors of Campylobacter jejuni PglD acetyltransferase; 360,000 compounds, 0.098% hits; purified PglD enzyme, DTNB colorimetric CoA detection; inhibition, % at 12.5 µM; AID 602405; in the data active = inhibition above about 16%, passing the limit was not always enough
E-sel inducer = induces E-selectin expression in human endothelial cells. AID 686992. 260,000 compounds, 0.37% hits. HUVEC E-selectin immunofluorescence imaging; normalized: neutral wells 0, TNF-alpha wells 100. activation, % at 7.58 µM;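 active = mean E-selectin-positive cell signal at least 10% of the positive control, reached in at least 60% of replicates, without over 20% cell loss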
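System: HUVEC / Compound: single concentration / Signal: immunofluorescence imaging / Read-out: percent E-selectin-positive cells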
C2C12 statin = suppression of simvastatin myotoxicity | C2C12 myotubes + simvastatin, ATP luminescence, 48 h; scaled: DMSO 0, geranylgeraniol control 100 | rescue of ATP level, % at 7.49 µM | 330,000 compounds, 0.78% hits | AID 602340;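 active = mean ATP rescue above about 67%, or every replicate alone reaching that limit, limit read from the data, passing the limit was not always enough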;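 note: myotubes were challenged with 10 µM simvastatin during compound exposure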
Numbers without * were called inactive; . = no result. Only some compounds are listed: those with a hit (about 2.8% of all), similar ones and a draw of the others.

mol	C2C12 statin	PGC1a acetyl inh	E-sel inducer	PglD inh	esBAF inh	Yeast UUG start
C=C1C(=O)O[C@@H]2C[C@@H](C)[C@@H]3C4OC4C(=O)[C@@]3(C)[C@@H](O)[C@H]12 (stereo partly specified)	80*	-370	1	0	12	-1
COC(=O)[C@H]1[C@H](CO)[C@H]2Cn3c(ccc(-c4ccncc4)c3=O)[C@@H]1N2CCc1ccccc1	-72	.	0	3	0	.
Cc1nc2c(=O)n(C)c(=O)nc-2n(C)n1	.	78*	.	.	.	.
O=C1CNC[C@H]2[C@H](c3ccc(Br)cc3)[C@@H](CO)N12	.	-7	0	.	.	.
COc1cc(/C=C/c2nc3ccccc3c(=O)n2-c2ccc(O)cc2)ccc1O	117*	-12	0	-2	0	-10
CCOC(=O)[C@]12Cc3cc(N(C)C)ccc3[C@H]1N(Cc1ccccc1)C(=O)c1ccccc12	95*	-14	0	3	3	9
CCOC(=O)[C@]12Cc3cc(Cl)ccc3[C@H]1N(Cc1ccccc1)C(=O)c1ccccc12	29	.	0	4	0	9
CN1C(=O)C(C2c3ccccc3C(=O)N2Cc2ccc([N+](=O)[O-])cc2)C(=O)N(C)C1=O (stereo unspecified)	-1	.	.	2	-8	-6
CN1C(=O)C(C2c3ccccc3C(=O)N2Cc2ccccc2)C(=O)N(C)C1=O (stereo unspecified)	108*	-4	.	-5	-4	-7
c1cncc(-c2ccc(C3[C@H]4CNC[C@@H]3N4CC3CC3)cc2)c1 (stereo partly specified)	.	8	0	.	.	.
CN1CCN(Cc2cn3cccnc3n2)CC1	.	-15	.	.	.	.
CC(C)n1nnnc1CN1CCN(C)CC1	99*	0	.	8	-7	-13
CCCNC(=O)N1[C@@H]2Cn3c(ccc(-c4ccccc4OC)c3=O)[C@H]1[C@@H](C(=O)OC)[C@@H]2CO	4	.	0	1	5	.
C=CCOC(=O)C1=C(C)OC(N)=C(C#N)C12C(=O)N(CN1CCOCC1)c1ccccc12 (stereo unspecified)	111*	-2	.	-2	-3	-21
C/C(=N\NC(=O)c1ccccc1O)c1c(O)n(C2CCCCC2)c(=O)[nH]c1=O	6	4	.	5	16	-23
CC(=NCc1cccnc1)c1c(O)n(C2CCCCC2)c(=O)[nH]c1=O	113*	18	.	2	-5	-11
C/C(=N\NC(=O)c1ccccc1)c1c(O)n(C2CCCCC2)c(=O)[nH]c1=O	95*	9	0	-3	1	-17
CCC(=NCc1cccnc1)c1c(O)n(C2CCCCC2)c(=O)[nH]c1=O	4	-3	.	5	-2	-17
COC(=O)[C@@H]1[C@@H](CO)[C@@H]2Cn3c(cccc3=O)[C@H]1N2Cc1nccs1	-32	.	0	1	8	.
CCOC(=O)c1cc2c(cn1)[nH]c1ccccc12	8	-31	0	4	50*	-7
CCOC(=O)c1ccccc1N	-1	3	.	0	-8	-15
CCC1CN2CCc3cc(OC)c(OC)cc3C2CC1CC1NCCc2c1[nH]c1ccc(O)cc21 (stereo unspecified)	.	70*	-1	.	.	.
CN1/C(=C\C=C2C(=O)NC(=O)NC2=O)C(C)(C)c2ccccc21	.	17	.	.	.	.
CCN1/C(=C/C=C/C2=[N+](CC)c3ccccc3C2(C)C)C(C)(C)c2ccccc21	-198	-10	131*	2	-77	-35
O=C(Cc1ccccc1)N1C[C@H]2[C@@H](c3ccccc31)[C@H](CO)N2Cc1ccccc1	2	-37	0	1	1	-7
CCC[N+]12CCC(CC1)C(C(O)(c1ccccc1)c1ccccc1)C2 (stereo unspecified)	-3	.	2	-6	-4	-3
CCCC[N+]12CCC(CC1)C(C(O)(c1ccccc1)c1ccccc1)C2 (stereo unspecified)	2	.	53*	.	0	.
OC[C@@H]1[C@@H]2c3ccccc3NC[C@@H]2N1Cc1cccnc1	-9	9	0	1	-4	-21
Cc1ccc(C(=O)C2CN(C)CC2C(=O)c2ccc(C)cc2)cc1 (stereo unspecified)	-5	7	.	0	60*	-10

3 records picked at random from the list so far:
mol	C2C12 statin	PGC1a acetyl inh	E-sel inducer	PglD inh	esBAF inh	Yeast UUG start
C=C1C(=O)O[C@@H]2C[C@@H](C)[C@@H]3C4OC4C(=O)[C@@]3(C)[C@@H](O)[C@H]12 (stereo partly specified)	80*	-370	1	0	12	-1
CCOC(=O)[C@]12Cc3cc(Cl)ccc3[C@H]1N(Cc1ccccc1)C(=O)c1ccccc12	29	.	0	4	0	9
COC(=O)[C@H]1[C@H](CO)[C@H]2Cn3c(ccc(-c4ccncc4)c3=O)[C@@H]1N2CCc1ccccc1	-72	.	0	3	0	.
